Measured values published in PubChem BioAssay AID602252 (Broad Institute, 2012).
The list shows a part of the results, in another mix than the full data. Some salts or complexes appear as unconnected parts, following the source record. Calls of active or inactive are those of the source.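 Rule for the calls: active = mean inhibition of at least 30% with at least half of replicates also reaching 30%; inconclusive = no clear call, values can overlap the other calls; inactive = the rest.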

target: Golgi-associated PDZ and coiled-coil motif-containing protein (Homo sapiens) (UniProt Q9HD26); experiment: blockade of CAL PDZ-reporter peptide interaction – biochemical, fluorescence polarization, untagged CAL PDZ, HTS, primary screen (AID 602252); conditions: purified CAL PDZ, TMR-peptide fluorescence polarization, 1 h; at 24.9 µM; hits give high values;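 note: 0% = DMSO neutral control and 100% = excess unlabeled competitor peptide PRC23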

| SMILES | inhibition |
| --- | --- |
| CP(=O)(Nc1ccc(SC(F)(F)F)cc1)Oc1ccc(F)cc1 (stereo not given) | inactive: -6.33% |
| CCOP(C)(=S)SCC(=O)NC(C)(CC)C(=O)O (stereo not given) | inactive: -2.64% |
| Cc1cc(-c2cccc3ccccc23)c(C)cn1.O=[N+]([O-])c1cc([N+](=O)[O-])c(O)c([N+](=O)[O-])c1 | inactive: -4.26% |
| O=[N+]([O-])c1cc([N+](=O)[O-])c(NCC2CCS(=O)(=O)C2)c([N+](=O)[O-])c1 (stereo not given) | inactive: -2.55% |
| O=[N+]([O-])c1ccc(OP2(=O)COCCO2)cc1 (stereo not given) | inactive: -1.31% |
| Cc1c(C(c2ccc3c(c2)OCO3)c2c(C)n(C)n(-c3ccccc3)c2=O)c(=O)n(-c2ccccc2)n1C.O=[N+]([O-])c1cc([N+](=O)[O-])c(O)c([N+](=O)[O-])c1 | inactive: -3.17% |
| COc1ccc(OP(C)(=O)Nc2cccc(Br)c2)cc1 (stereo not given) | inactive: 2.3% |
| COc1ccc(NP(C)(=O)Oc2ccccc2OC)cc1 (stereo not given) | inactive: -0.942% |
| CN(C)CCOC(=O)C(O)(c1ccccc1)C1CCCCC1 (stereo not given) | inactive: -3.52% |
| CCN(CC)CCCOC(=O)C(O)(c1ccccc1)C1CCCCC1 (stereo not given) | inactive: -3.47% |
| Cc1c([N+](=O)[O-])cc([N+](=O)[O-])c(Br)c1[N+](=O)[O-] | inactive: 0.619% |
| O=[N+]([O-])c1cc([N+](=O)[O-])c(OC2CCCCC2O)c([N+](=O)[O-])c1 (stereo not given) | inactive: -0.869% |
| CCCCCOc1ccc(NP(C)(=O)Oc2ccc(Cl)cc2Cl)cc1 (stereo not given) | inactive: -1.29% |
| CP(=O)(Nc1ccccc1)Oc1ccc(F)cc1 (stereo not given) | inactive: -2.63% |
| O=C(OCCN1CCN(CCOCc2ccccc2)CC1)C(O)(c1ccccc1)c1ccccc1 | inactive: -0.486% |
| O=C(OC1CN2CCC1CC2)c1ccc([N+](=O)[O-])cc1 (stereo not given) | inactive: -0.749% |
| COc1ccc2c(c1O)-c1c(O)c(OC)cc3c1[C@H](C2)[N+](C)(C)CC3.O=[N+]([O-])c1cc([N+](=O)[O-])c([O-])c([N+](=O)[O-])c1[O-] | inactive: -0.881% |
| CC(C)c1ccc(OP(C)(=O)Nc2ccc(SC(F)(F)F)cc2)cc1 (stereo not given) | inactive: -2.1% |
| CP(=O)(Nc1ccccc1F)Oc1ccccc1 (stereo not given) | inactive: -3.69% |
| Cc1cc(C)cc(OP(C)(=O)Nc2ccccn2)c1 (stereo not given) | inactive: 2.71% |
| CP(=O)(Nc1cccc(Br)c1)Oc1ccccc1 (stereo not given) | inactive: -9.68% |
| Cc1ccc(C)c(NP(C)(=O)Oc2ccccc2)c1 (stereo not given) | inactive: -0.738% |
| COc1ccccc1OP(C)(=O)Nc1cccc(Br)c1 (stereo not given) | inactive: -0.382% |
| Cc1cc(C)cc(OP(C)(=O)Nc2ccc(C)cc2C)c1 (stereo not given) | inactive: -3.93% |
| CCOC(=O)c1ccc(NP(C)(=O)Oc2cc(C)cc(C)c2)cc1 (stereo not given) | inactive: 0.786% |
| CC1=NCCc2c1[nH]c1ccccc21.O=[N+]([O-])c1cc([N+](=O)[O-])c(O)c([N+](=O)[O-])c1 | inactive: -2.61% |
| O=C(O)c1cccc(Nc2c([N+](=O)[O-])cc([N+](=O)[O-])cc2[N+](=O)[O-])c1 | inactive: -2% |
| CN1CCCCC1COC(=O)C1(O)c2ccccc2CCc2ccccc21 (stereo not given) | inactive: -2.04% |

| SMILES | inhibition |
| --- | --- |
| COc1ccccc1OP(C)(=O)Nc1c(C)cccc1C (stereo not given) | inactive: 3.34% |
| CCCOc1ccc(NP(C)(=O)Oc2ccc(Cl)cc2)cc1 (stereo not given) | inactive: -6.3% |
| CP(=O)(Nc1ccc(SC(F)(F)F)cc1)Oc1ccccc1 (stereo not given) | inactive: -5.05% |
| CC1=C2N=C(C=C3N=C(C(C)=C4[N-][C@@](C)([C@@H]5N=C1[C@](C)(CCC(=O)NC[C@@H](C)OP(=O)([O-])O[C@H]1[C@@H](O)[C@@H](n6cnc7cc(C)c(C)cc76)O[C@@H]1CO)[C@H]5CC(N)=O)[C@@](C)(CC(N)=O)[C@@H]4CCC(N)=O)[C@@](C)(CC(N)=O)[C@@H]3CCC(N)=O)C(C)(C)[C@@H]2CCC(N)=O.[C-]#N.[Co+3] | inactive: -2.46% |
| O=[N+]([O-])c1cc([N+](=O)[O-])c(Nc2nnnn2CCO)c([N+](=O)[O-])c1 | inactive: -1.51% |
| CCOC(=O)C(CC)C1=NC(C)(C)Cc2ccccc21.O=[N+]([O-])c1cc([N+](=O)[O-])c(O)c([N+](=O)[O-])c1 (stereo not given) | inactive: 0.357% |
| Cc1nc2ccc3ccccc3c2s1.O=[N+]([O-])c1cc([N+](=O)[O-])c(O)c([N+](=O)[O-])c1 | inactive: -2.59% |
| O=[N+]([O-])c1cc([N+](=O)[O-])c(-n2nnc3ccccc32)c([N+](=O)[O-])c1 | inactive: 0.667% |
| CCOP(C)(=S)SCC(=O)NC(C)C(=O)O (stereo not given) | inactive: 0.288% |
| CCOC(=O)c1ccc(NP(C)(=O)Oc2ccc(OC)cc2)cc1 (stereo not given) | inactive: -0.99% |
| CP(=O)(Nc1ccccn1)Oc1ccc(Cl)cc1 (stereo not given) | inactive: -1.59% |
| Cc1cccc(C)c1OP(C)(=O)Nc1ccc(SC(F)(F)F)cc1 (stereo not given) | inactive: -2.71% |
| CP(=O)(Oc1ccccc1)OC(c1ccccc1)C(F)(F)F (stereo not given) | inactive: -10.2% |
| CP(=O)(NC(=O)Nc1ccccc1)Oc1ccccc1 (stereo not given) | inactive: -0.703% |
| Cc1cc(C)cc(OP(C)(=O)Nc2ccc(SC(F)(F)F)cc2)c1 (stereo not given) | inactive: -3.36% |
| COc1ccccc1OP(C)(=O)Nc1ccccc1 (stereo not given) | inactive: -6.63% |
| CCOC(=O)c1ccc(NP(C)(=O)Oc2ccccc2)cc1 (stereo not given) | inactive: -2.55% |
| COc1ccccc1OP(C)(=O)Nc1ccc(C)cc1 (stereo not given) | inactive: -1.39% |
| Cc1ccc(NP(C)(=O)Oc2ccccc2)c(C)c1 (stereo not given) | inactive: -2.63% |
| COc1ccccc1OP(C)(=O)Nc1cc(Cl)ccc1C (stereo not given) | inactive: 4.09% |
| COc1ccc(OP(C)(=O)Nc2cccc(F)c2)cc1 (stereo not given) | inactive: 1.22% |
| Cc1cc(C)cc(OP(C)(N)=O)c1 (stereo not given) | inactive: -2.74% |
| O=[N+]([O-])c1cc([N+](=O)[O-])c(Nc2cccnc2)c([N+](=O)[O-])c1 | inactive: -0.163% |
| CC(C)(C)c1ccc(OP(C)(=O)Nc2ccc(SC(F)(F)F)cc2)cc1 (stereo not given) | inactive: -3.27% |
| Cc1cccc(C)c1OP(C)(N)=O (stereo not given) | inactive: -2.58% |
| O=[N+]([O-])c1ccc2c(c1)C=Nc1ccccc1O2 | inactive: 7.63% |
| CCN(CC)CCCOC(=O)C(O)(c1ccccc1)c1ccccc1 | inactive: -2.95% |
